{"source": "PubChem BioAssay (EPA / NIEHS)", "key": {"[1]": {"assay": "APR_HepG2_CellCycleArrest_24hr: Apredica 24-hour HepG2 Assay for Cell Cycle Arrest (AID 2282905)", "conditions": "imaging, actives raise or lower the signal", "procedure,_shortened": "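Cell cycle arrest is scored from nuclear DNA content measured by high-content imaging of Hoechst 33342-stained HepG2 cells following 24-hour treatment at ten concentrations up to 200 uM, with DMSO as baseline.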"}, "[2]": {"assay": "APR_HepG2_NuclearSize_24hr: Apredica 24-hour HepG2 Assay for Nuclear Size (AID 2282907)", "conditions": "high-content imaging, actives raise or lower the signal", "procedure,_shortened": "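Compounds in DMSO (final 0.5%) were added to human HepG2 hepatoma cells at ten concentrations up to 200 uM for 24 hr. Fixed nuclei were stained with Hoechst 33342, and nuclear diameter was quantified from automated images.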"}, "[3]": {"assay": "APR_HepG2_CellLoss_24hr: Apredica 24-hour HepG2 Assay for Cell Loss (AID 2282908)", "conditions": "high-content imaging", "procedure,_shortened": "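Cell number is quantified by fluorescence imaging of Hoechst 33342-stained nuclei following dosing at 0.39–200 uM in 0.5% DMSO. Curves are fitted in both directions from the DMSO baseline.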"}, "[4]": {"assay": "APR_HepG2_MicrotubuleCSK_24hr: Apredica 24-hour HepG2 Assay for Microtubule CSK Stabilty (AID 2282909)", "conditions": "HepG2 microtubule cytoskeleton imaging, actives raise or lower the signal", "procedure,_shortened": "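Steps: dose HepG2 for 24 h (0.39–200 uM, 0.5% DMSO); fix 30 min in 3.7% formaldehyde at room temperature; permeabilize; stain alpha-tubulin 60 min; image microtubule cytoskeleton at 20x. Signal change fitted in both directions relative to DMSO.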"}, "[5]": {"assay": "APR_HepG2_MitoticArrest_24hr: Apredica 24-hour HepG2 Assay for Mitotic Arrest (AID 2282910)", "conditions": "high-content imaging, actives raise or lower the signal", "procedure,_shortened": "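HepG2 human liver cells were exposed to compounds at 0.39–200 uM (10 concentrations, duplicate) in 0.5% v/v DMSO for 24 hr, then fixed and immunostained for phospho-histone H3 with Hoechst 33342. Mitotic arrest came from HCS fluorescent imaging, fitted bidirectionally against DMSO.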"}, "[6]": {"assay": "APR_HepG2_MitoMembPot_24hr: Apredica 24-hour HepG2 Assay for Mitochondrial Membrane Potential (AID 2282911)", "conditions": "imaging, actives raise or lower the signal", "procedure,_shortened": "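HepG2 cells exposed 24 h to 0.39–200 uM compounds in duplicate, 0.5% v/v DMSO final. MitoTracker Red CMXRos 250 nM loaded 30 min before formaldehyde fixation; high-content imaging at 20x, bidirectional fit versus DMSO.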"}, "[7]": {"assay": "APR_HepG2_MitoMass_24hr: Apredica 24-hour HepG2 Assay for Mitochondrial Mass (AID 2282912)", "conditions": "high-content imaging, actives raise or lower the signal", "procedure,_shortened": "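The liver line HepG2 was dosed in duplicate across a 0.39–200 uM series, with final DMSO held at 0.5% v/v, and harvested at 24 hr. High-content imaging measured mitochondrial dye staining.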"}, "[8]": {"assay": "APR_HepG2_p53Act_24hr: Apredica 24-hour HepG2 Assay for p53 Activation (AID 2282913)", "conditions": "high-content imaging, actives raise or lower the signal", "procedure,_shortened": "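HepG2 cells exposed 24 h to compounds at 0.39–200 uM in duplicate, 0.5% v/v DMSO final; fixed, permeabilized, stained with anti-p53 antibody and Hoechst 33342; fluorescence imaging; bidirectional curve fit versus DMSO.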"}, "[9]": {"assay": "APR_HepG2_CellCycleArrest_72hr: Apredica 72-hour HepG2 Assay for Cell Cycle Arrest (AID 2282914)", "conditions": "high-content imaging, actives raise or lower the signal", "procedure,_shortened": "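HepG2 cells exposed 72 h in duplicate to 0.39–200 uM compound, 0.5% DMSO final. Formaldehyde-fixed, Hoechst 33342-stained nuclei imaged at 20x, six fields per well; DNA content per valid cell quantified by cell-cycle image analysis, bidirectional fit versus DMSO.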"}, "[10]": {"assay": "APR_HepG2_CellLoss_72hr: Apredica 72-hour HepG2 Assay for Cell Loss (AID 2282915)", "conditions": "high-content imaging", "method": "APR_HepG2_72hr is a cell-based, multiplexed-readout assay that uses HepG2, a human liver cell line, with measurements taken at 72 hours after chemical dosing in a 384-well plate.APR_HepG2_CellLoss_72hr is one of 10 assay component(s) measured or calculated from the APR_HepG2_72hr assay. It is designed to make measurements of cell number, a form of viability reporter, as detected with fluorescence intensity signals by HCS Fluorescent Imaging technology.Data from the assay component APR_HepG2_CellLoss_72hr was analyzed into 1 assay endpoint. This assay endpoint, APR_HepG2_CellLoss_72hr, was analyzed with bidirectional fitting relative to DMSO as the negative control and baseline of activity. Using a type of viability reporter, measures of all nuclear dna for gain or loss-of-signal activity can be used to understand the viability at the cellular-level. Furthermore, this assay endpoint can be referred to as a secondary readout, because this assay has produced multiple assay endpoints where this one serves a viability function. To generalize the intended target to other relatable targets, this assay endpoint is annotated to the cell cycle intended target family, where the subfamily is proliferation.\nCells were treated with dimethyl sulfoxide (DMSO) as a solvent control at a final concentration of 0.5% v/v or with compounds in DMSO with a resulting final DMSO concentration of 0.5% v/v. Compound treatment was done at concentrations of 0.39, 0.78, 1.56, 3.12, 6.24, 12.5, 25, 50, 100, and 200 uM in duplicate on each plate. Cells were treated with compounds for 1, 24, or 72 hr. Carbonyl […] m-chloro-phenylhydrazone (CCCP) and taxol were used as positive controls for mitochondrial function and cytoskeletal stability, respectively; DMSO served as the negative control for this experiment. Cells were fixed by the direct addition of 50 uL formaldehyde in Hank's Balanced Salt Solution (HBSS) to a final concentration of 3.7%. […] For mitochondrial membrane potential and mitochondrial measurements, pre-fixed cells were incubated with 50 uL of MitoTracker Red CMXRos (Invitrogen) at a concentration of 250 nM for 30 min before fixation. […] Cells were labeled for multiplexed imaging on two separate plates: a) Hoechst 33342, MitoTracker Red, phospho-histone H3, and alpha-tubulin, and b) Hoechst 33342, phospho-histone H2A.x, and c-Jun. A final rinse with HBSS (50 uL) was performed before analysis. The primary and secondary antibodies for the proteins were phospho-histone H3 (rabbit anti-phospho-histone H3 and FITC-donkey anti-rabbit IgG), phospho-histone H2A.x (mouse anti-phospho-histone H2A.x and FITC-donkey anti-mouse IgG), c-Jun (rabbit anti-phospho-c-Jun and Cy3-donkey anti-rabbit IgG), p53 (sheep anti-p53 and Cy5-donkey anti-sheep IgG), alpha-tubulin (mouse anti-alpha-tubulin and Cy5-donkey anti-mouse IgG). These antibodies are available as the CellCiphr HepG2 assay kit (Millipore).Digital images of each well were captured using a Cellomics ArrayScan VTI (Thermo Scientific Cellomics) (0.8 NA objective, 0.63x optical coupler, and XF-93 filter set) at 20x magnification. […] Six digital images were captured in each well and analyzed using BioApplication software, which was provided with the instrument. All images were analyzed using the Compartmental Analysis and Cell Cycle Analysis BioApplication software from Cellomics. The Cell Cycle BioApplication software used the nuclear stain to identify valid cells, to measure nuclear diameter, and to quantify DNA content. […]"}}, "note": "This is a selection; strong and weak results do not stand in their true shares. Activity calls are given as the source filed them. Rule for the calls: active = hit-call score of the fitted dose curve at least 0.9, where 1 is the maximum; inactive = score below 0.9."}
{"molecule": "Cc1ccc([N+](=O)[O-])cc1[N+](=O)[O-]", "values": [{"measurement": "outcome", "setting": "[1]", "result": "inactive"}, {"measurement": "outcome", "setting": "[2]", "result": "inactive"}, {"measurement": "outcome", "setting": "[3]", "result": "inactive"}, {"measurement": "outcome", "setting": "[4]", "result": "inactive"}, {"measurement": "outcome", "setting": "[5]", "result": "inactive"}, {"measurement": "outcome", "setting": "[6]", "result": "inactive"}, {"measurement": "outcome", "setting": "[7]", "result": "inactive"}, {"measurement": "outcome", "setting": "[8]", "result": "inactive"}, {"measurement": "outcome", "setting": "[9]", "result": "inactive"}, {"measurement": "outcome", "setting": "[10]", "result": "inactive"}]}
{"molecule": "O=[N+]([O-])c1cccc([N+](=O)[O-])c1", "values": [{"measurement": "outcome", "setting": "[1]", "result": "inactive"}, {"measurement": "outcome", "setting": "[2]", "result": "inactive"}, {"measurement": "outcome", "setting": "[3]", "result": "inactive"}, {"measurement": "outcome", "setting": "[4]", "result": "inactive"}, {"measurement": "outcome", "setting": "[5]", "result": "inactive"}, {"measurement": "outcome", "setting": "[6]", "result": "inactive"}, {"measurement": "outcome", "setting": "[7]", "result": "inactive"}, {"measurement": "outcome", "setting": "[8]", "result": "inactive"}, {"measurement": "outcome", "setting": "[9]", "result": "inactive"}, {"measurement": "outcome", "setting": "[10]", "result": "inactive"}]}
{"molecule": "CC(C)OP(C)(=O)OC(C)C", "values": [{"measurement": "outcome", "setting": "[1]", "result": "inactive"}, {"measurement": "outcome", "setting": "[2]", "result": "inactive"}, {"measurement": "outcome", "setting": "[3]", "result": "inactive"}, {"measurement": "outcome", "setting": "[4]", "result": "inactive"}, {"measurement": "outcome", "setting": "[5]", "result": "inactive"}, {"measurement": "outcome", "setting": "[6]", "result": "inactive"}, {"measurement": "outcome", "setting": "[7]", "result": "inactive"}, {"measurement": "outcome", "setting": "[8]", "result": "inactive"}, {"measurement": "outcome", "setting": "[9]", "result": "inactive"}, {"measurement": "outcome", "setting": "[10]", "result": "inactive"}]}
{"molecule": "Cc1c([N+](=O)[O-])cccc1[N+](=O)[O-]", "values": [{"measurement": "outcome", "setting": "[1]", "result": "inactive"}, {"measurement": "outcome", "setting": "[2]", "result": "inactive"}, {"measurement": "outcome", "setting": "[3]", "result": "inactive"}, {"measurement": "outcome", "setting": "[4]", "result": "inactive"}, {"measurement": "outcome", "setting": "[5]", "result": "inactive"}, {"measurement": "outcome", "setting": "[6]", "result": "inactive"}, {"measurement": "outcome", "setting": "[7]", "result": "inactive"}, {"measurement": "outcome", "setting": "[8]", "result": "inactive"}, {"measurement": "outcome", "setting": "[9]", "result": "inactive"}, {"measurement": "outcome", "setting": "[10]", "result": "inactive"}]}
{"molecule": "Cc1cccc([N+](=O)[O-])c1[N+](=O)[O-]", "values": [{"measurement": "outcome", "setting": "[1]", "result": "inactive"}, {"measurement": "outcome", "setting": "[2]", "result": "inactive"}, {"measurement": "outcome", "setting": "[3]", "result": "inactive"}, {"measurement": "outcome", "setting": "[4]", "result": "inactive"}, {"measurement": "outcome", "setting": "[5]", "result": "inactive"}, {"measurement": "outcome", "setting": "[6]", "result": "inactive"}, {"measurement": "outcome", "setting": "[7]", "result": "inactive"}, {"measurement": "AC50", "setting": "[8]", "result": "active: 76.5 µM"}, {"measurement": "AC50", "setting": "[9]", "result": "active: 72.4 µM"}, {"measurement": "AC50", "setting": "[10]", "result": "active: 77.3 µM"}]}
